Screening results as filed in PubChem.
Hits are enriched below; roughly 1.5% of the tested compounds scored in any of these assays.
PglD DTNB = PglD (C. jejuni) enzyme inhibition; hit rate 0.098% among 360,000; AID 602405; inhibition, % at 12.5 µM; purified PglD enzyme, DTNB colorimetric CoA detection; in the data active = inhibition above about 16%, passing the limit was not always enough
RAD52 anneal inh = inhibitors of human RAD52 DNA annealing | recombinant RAD52 DNA annealing, FRET fluorescence | inhibition, % at 18.7 µM | hit rate 0.46% among 360,000 | AID 651710;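 active = every replicate showing at least 50% inhibition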
Yeast UUG start = modulators of start codon recognition fidelity in yeast; S. cerevisiae UUG-firefly luciferase reporter, luminescence/redox ratio; activity score, % at 18.7 µM; hit rate 0.13% among 350,000; AID 602363;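 active = replicate mean at a twofold rise or more, about +100% in these data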;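 note: firefly luciferase made from a UUG start codon reports start codon fidelity; reporter light over untreated wells divided by growth signal over untreated wells; some hits fall short of that in this replicate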
Casp6 inh = blocks human caspase-6 cleavage activity | purified caspase-6, Z-VEID-R110 cleavage fluorescence | inhibition, % at 12.5 µM | hit rate 0.53% among 350,000 | AID 686996;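 active = mean inhibition across replicates at least about 35%, with every replicate also reaching that limit, limit read from the data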;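 note: 0% = median of neutral control wells and 100% = no fluorescence left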
INS-1E GSIS act = primary screen for activators of insulin secretion dependent on glucose, INS-1E cells, GLuc reporter luminescence; INS-1E GLuc reporter insulin secretion, 2-3 h; activation, % at 16.6 µM; hit rate 0.61% among 370,000; AID 743287;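 active = lowest replicate activation of at least 40%, so every replicate reaches that level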;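 note: 0% = median of neutral control wells and 100% = median of IBMX positive control wells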
RAD54 inh = blocks human RAD54 Holliday junction branch migration; hit rate 0.14% among 360,000; FAM/BHQ fluorescence; inhibition, % at 10.4 µM; AID 602329; Q92698;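 active = mean normalized replicate activity at least 40 and at least half of replicates scoring 40 or more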;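 note: 0% = median of neutral control wells and 100% = median of positive control wells; inhibitors cause a drop in the FAM fluorescence signal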
* = called active by the depositor; . = no result.

Labels used below: A = PglD DTNB; B = RAD52 anneal inh; C = Yeast UUG start; D = Casp6 inh; E = INS-1E GSIS act; F = RAD54 inh
O=C(c1ccc(S(=O)(=O)Cc2cc(F)ccc2F)c([N+](=O)[O-])c1)N1CCCC1
  A: -3; B: -12; C: -21; D: -4; E: 76*; F: -2
Cc1c(Cl)c(C(F)F)nn1CC(=O)NC1C(=O)N2C(C(=O)O)=C(CSc3nnnn3C)CSC12 (configuration not stated)
  A: .; B: -17; C: .; D: 38*; E: 8; F: .
COc1cc2c(=O)[nH]c3cc([N+](=O)[O-])ccc3c2cc1[N+](=O)[O-]
  A: -4; B: -6; C: -13; D: 5; E: .; F: 1
COc1cc2[nH]c(Cl)c([N+](=O)[O-])c2cc1OC
  A: -1; B: -10; C: -21; D: 49*; E: 7; F: 2
O=C(O)Cc1c[nH]c2ccccc12
  A: -5; B: -19; C: -11; D: -1; E: -5; F: 0
O=C(O)Cc1c[nH]c2cccc(O)c12
  A: 1; B: 8; C: -17; D: 54*; E: -4; F: 8
CC(C)Nc1nc(NC(C)(C)C)nc(Oc2ccc(=O)n(C)n2)n1
  A: 3; B: -8; C: -19; D: 3; E: 41*; F: 5
COc1nc(NC(C)(C)C)nc(Oc2ccc(=O)n(C)n2)n1
  A: -6; B: -3; C: -8; D: 3; E: .; F: -5
C[C@@H]1CN([C@H](C)CO)C(=O)c2cc(-c3ccccc3)cnc2O[C@@H]1CN(C)Cc1ccc(C(=O)O)cc1
  A: -3; B: 11; C: -3; D: -2; E: 1; F: -8
O=C1C=CC(=O)c2c(O)c(N3CCN(CCOCCO)CC3)c(Br)c(O)c21
  A: .; B: 43; C: .; D: 97*; E: .; F: .
O=C1C=CC(=O)c2c(O)c(N3CCN(CCO)CC3)c(Cl)c(O)c21
  A: .; B: 29; C: .; D: 93*; E: -35; F: .
N#CC1(NC(=O)CN2C(=O)c3ccc([N+](=O)[O-])cc3C2=O)CCCCC1
  A: 0; B: -9; C: -14; D: 3; E: 24; F: -3
Cc1ccc(NC(=O)C(=O)NCC2OCCc3ccccc32)cc1 (configuration not stated)
  A: 1; B: -4; C: -7; D: -3; E: 41; F: 3
O=C(NCC1OCCc2ccccc21)c1ccc(NC(=O)c2ccc(Cl)cc2)cc1 (configuration not stated)
  A: 0; B: .; C: -6; D: .; E: 249*; F: 1
COc1ccccc1C(=O)N/N=C(\C)CC(=O)Nc1ccc2c(c1)OCCO2
  A: 1; B: -13; C: -11; D: -1; E: 41*; F: -4
C/C(CC(=O)Nc1ccc2c(c1)OCCO2)=N\NC(=O)c1ccccc1F
  A: -3; B: 11; C: -11; D: -3; E: 1; F: -1
Nc1nc2ccc(Cl)cc2cc1C(=O)NCCc1ccc(Cl)cc1Cl
  A: .; B: -12; C: .; D: 0; E: 62*; F: .
O=C(CCCOc1ccccc1)Nc1cccc(S(=O)(=O)N2CCCCC2)c1
  A: .; B: -15; C: .; D: 1; E: -36; F: .
CC1OC(OCC2OC(Oc3c(-c4ccc(O)cc4)oc4cc(O)cc(O)c4c3=O)C(O)C(O)C2O)C(O)C(O)C1O (configuration not stated)
  A: 0; B: -4; C: 3; D: 54*; E: -8; F: -5
CCN(CC)c1ccc2nc3ccc(N)cc3[n+](-c3ccccc3)c2c1
  A: -2; B: -309; C: -10; D: 29; E: -75; F: 85*
CCN(CC)c1ccc2cc(-c3nc4ccccc4[nH]3)c(=O)oc2c1
  A: 7; B: .; C: -33; D: .; E: .; F: -61
CCN(CC)c1ccc2nc3ccccc3[n+](CC)c2c1
  A: -6; B: .; C: 6; D: .; E: .; F: 54*
COc1cccc(CN(C)C(=O)c2cc(S(=O)(=O)N3CCN(c4ccccc4)CC3)ccc2Cl)c1
  A: -3; B: -3; C: -10; D: -7; E: -30; F: 3
COc1ccc(CCNC(=O)CSc2ccccc2)cc1OC
  A: .; B: -4; C: .; D: 2; E: 73*; F: .
COc1ccc(CCNC(=O)C(=O)c2c(C)n(C)c3ccccc23)cc1OC
  A: 6; B: -7; C: -32; D: 1; E: 46*; F: 1

Exported field by field: entries from further up
O=C1C=CC(=O)c2c(O)c(N3CCN(CCO)CC3)c(Cl)c(O)c21
  PglD DTNB: .	RAD52 anneal inh: 29	Yeast UUG start: .	Casp6 inh: 93*	INS-1E GSIS act: -35	RAD54 inh: .
N#CC1(NC(=O)CN2C(=O)c3ccc([N+](=O)[O-])cc3C2=O)CCCCC1
  PglD DTNB: 0	RAD52 anneal inh: -9	Yeast UUG start: -14	Casp6 inh: 3	INS-1E GSIS act: 24	RAD54 inh: -3
Cc1ccc(NC(=O)C(=O)NCC2OCCc3ccccc32)cc1 (configuration not stated)
  PglD DTNB: 1	RAD52 anneal inh: -4	Yeast UUG start: -7	Casp6 inh: -3	INS-1E GSIS act: 41	RAD54 inh: 3

(cont.)
Labels used below: A = PglD DTNB; B = RAD52 anneal inh; C = Yeast UUG start; D = Casp6 inh; E = INS-1E GSIS act; F = RAD54 inh
COc1ccc(CCNC(=O)CSc2ccccn2)cc1OC
  A: .; B: -4; C: .; D: 1; E: 11; F: .
COc1ccc(CCNC(=O)CSCc2ccc(C)cc2)cc1OC
  A: .; B: .; C: .; D: .; E: 21; F: .
COc1ccc(CCNC(=O)CSc2cccc3cccnc23)cc1OC
  A: -1; B: -5; C: -11; D: 4; E: 41*; F: 7
COc1ccc(CCNC(=O)CSC(=O)c2ccccc2)cc1OC
  A: .; B: -10; C: .; D: 0; E: 46*; F: .
Cc1c(C(=O)C(=O)NCCC2=CCCCC2)c2ccccc2n1C
  A: .; B: -9; C: .; D: -3; E: .; F: .
O=C(Nc1cccc(F)c1)c1ccc2ncsc2c1
  A: 4; B: .; C: -16; D: .; E: .; F: 0
O=C(COC(=O)c1cc(Br)ccc1O)NNC(=O)c1ccc([N+](=O)[O-])cc1
  A: 0; B: -11; C: -16; D: 0; E: 12; F: 8
CCCSc1ccc(-c2nn(-c3ccccc3)cc2/C=C(/C#N)C(=O)N2CCOCC2)cc1
  A: .; B: -13; C: .; D: -8; E: -24; F: .
CCSc1ccc(-c2nn(-c3ccccc3)cc2/C=C(/C#N)C(=O)NC)cc1
  A: 1; B: .; C: -5; D: .; E: 65*; F: 0
CN(C)CC(=O)N1CCCCN2[C@@H](CO)[C@H](c3ccc(/C=C/c4ccccc4)cc3)[C@@H]2C1
  A: 1; B: 69*; C: -3; D: 0; E: 11; F: 31
CN(C)CC(=O)N1CCCCN2[C@H](CO)[C@H](c3ccc(/C=C/c4ccccc4)cc3)[C@H]2C1
  A: 4; B: 62*; C: -2; D: 4; E: 21; F: 38
CN(C)CC(=O)N1CCCCN2[C@H](C1)[C@@H](c1ccc(/C=C/c3ccccc3)cc1)[C@@H]2CO
  A: 6; B: 58*; C: -5; D: 1; E: 30; F: 25
CN(C)CC(=O)N1CCCCN2[C@@H](CO)[C@@H](c3ccc(-c4ccccc4)cc3)[C@@H]2C1
  A: -7; B: 23; C: 4; D: 2; E: -7; F: 12
CN(C)CC(=O)N1CCCCN2[C@H](C1)[C@H](c1ccc(/C=C/c3ccccc3)cc1)[C@@H]2CO
  A: 2; B: 48; C: 0; D: 3; E: -17; F: 12
CN(C)CC(=O)N1CCCCN2[C@@H](CO)[C@@H](c3ccc(/C=C/c4ccccc4)cc3)[C@@H]2C1
  A: 2; B: 71*; C: 44; D: 4; E: 7; F: 20
C/C=C/c1ccc([C@@H]2[C@H]3CN(C(=O)CN(C)C)CCCCN3[C@H]2CO)cc1
  A: .; B: .; C: .; D: .; E: 10; F: .
O=C(Nc1ccccc1Br)C1CCCN1S(=O)(=O)c1cccc2nsnc12 (configuration not stated)
  A: .; B: -7; C: .; D: -5; E: 8; F: .
CCCN(C(=O)CSc1nc2ccccc2n1CC)C1CCS(=O)(=O)C1 (configuration not stated)
  A: 0; B: -11; C: -11; D: -3; E: -1; F: -4
Cc1noc(C)c1S(=O)(=O)Nc1cccc2c1O[C@H](CN(C)C(=O)NC(C)C)[C@H](C)CN([C@H](C)CO)C2=O
  A: -2; B: -8; C: 12; D: -1; E: 6; F: 1
C/C(=N\NC(=O)c1nnn(-c2nonc2N)c1CN1CCc2ccccc21)c1ccccc1O
  A: 1; B: -5; C: -6; D: 4; E: -1; F: 4
COc1ccc(F)cc1C1=CC(=O)C[C@H](c2ccc3c(c2)OCO3)C1
  A: -3; B: -10; C: 13; D: 52*; E: .; F: 3
COc1cc(F)c(C2=CC(=O)C[C@H](c3ccc4c(c3)OCO4)C2)cc1F
  A: -1; B: -12; C: -1; D: 2; E: 1; F: -6
O=C1NC(=S)S/C1=C\C=C\c1ccc([N+](=O)[O-])o1
  A: -7; B: -7; C: -1; D: 96*; E: -63; F: 5
CCN(CC)CCNCc1cc(Cl)ccc1OCc1ccccc1F
  A: 7; B: 17; C: -7; D: -2; E: 13; F: 9
